Measured values as given in patent US7825216B2.

Chains of the proteins cited; added tags and fusions are not shown. Residues count along the entry.
UniProt P62993, whole entry: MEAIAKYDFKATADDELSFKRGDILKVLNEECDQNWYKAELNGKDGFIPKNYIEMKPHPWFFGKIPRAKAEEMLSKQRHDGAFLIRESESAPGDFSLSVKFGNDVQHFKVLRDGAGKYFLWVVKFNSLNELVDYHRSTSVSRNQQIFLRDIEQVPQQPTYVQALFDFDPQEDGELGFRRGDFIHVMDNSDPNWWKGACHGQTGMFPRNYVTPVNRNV
UniProt P62993, 60-152 limits assumed: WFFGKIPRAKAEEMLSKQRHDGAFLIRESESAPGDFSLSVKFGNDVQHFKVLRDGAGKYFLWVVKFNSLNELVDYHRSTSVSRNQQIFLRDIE

Key:
Grb2 SH2 domain = Grb2 SH2 domain (Homo sapiens, UniProt P62993); test: Biacore binding assay (surface plasmon resonance), inhibition of SH2 domain binding; conditions: read-out: IC50 average value, SH2 domain binding inhibition; solution IC50, SPR
Method: This Example illustrates the biological activity of the compounds of formula X as Grb2 SH2 domain binding inhibitors.
The Biacore Binding Assay
Inhibition of SH2 domain binding was determined by the Surface Plasmon Resonance (SPR) method. The solution IC50 values for peptide binding inhibition were measured as described in Yao et al., J. Med. Chem., 42, 25-35 (1999). Compounds 11, 12, and 20a had IC50 average values of 155 nM, 500 nM, and 117 nM, respectively.

MAP kinase = test: Inhibition of MAP kinase in heregulin-treated MDA-453 cells (phospho-p44/42 MAP kinase antibody blot); conditions: MDA-453 cells treated with HRG, blotting
Method: The present invention further provides a method of inhibiting the MAP kinase activity in a mammal. MAP kinases function in a protein kinase cascade that plays a critical role in the regulation of cell growth and differentiation. MAP kinases are activated by a variety of signals including growth factors, cytokines and hormones through Grb2 and other signaling proteins. For example, the state of threonine and tyrosine phosphorylation of cellular MAP kinase is determined in MDA-453 cells treated with growth factor heregulin (HRG) using a polyclonal antibody specifically recognizing the phosphorylated threonine and tyrosine residues of MAP kinase. A dose-dependent inhibition of MAP kinase activity is observed in MDA-MB-453 cells. The IC50 value of MAP kinase inhibition is 12.5 μM for compound 126, which is in consistent with cell growth inhibition.
MAP kinases function in a protein kinase cascade that plays a critical role in the regulation of cell growth and differentiation. […] The inhibition of MAP kinase in MDA-453 cells treated with growth factor heregulin (HRG) by MAP kinase specific antibody was measured. […] The protein concentration was determined by BCA method (Pierce, Rockford, Ill.). […] Activation of MAP kinase was detected with a specific antibody, i.e., phospho-p44/42 MAP kinase antibody (New England BioLabs) and visualized with ECL (Amersham, Arlington Heights, Ill.).

Grb2 = Grb2 (Homo sapiens, UniProt P62993); test: ELISA assay of Grb2 binding inhibition; conditions: FIG. 19
Method: The Grb2 binding inhibition also was determined by carrying but an ELISA assay. Compounds 11 and 12 were effective in inhibiting Grb2 binding.

[1] = test system: MDA-MB-453 human breast cancer cells; test: Inhibition of cell proliferation assay on plastics; conditions: MDA-MB-453, FIG. 17a
From the text: (§1) FIGS. 17a-c depict the human breast cancer cell growth and proliferation inhibition by compounds 11, 12, 36, and 38. FIG. 17a depicts the proliferation inhibition of human breast cancer cells MDA-MB-453; FIG. 17b depicts growth inhibition of MDA-MB-453; and FIG. 17c depicts a lack of growth inhibition of MDA-MB-253 breast cancer cells.
(§2) Cell lines were obtained from the American Type Culture Collection (Rockville, Md.) and Lombardi Cancer Center, Georgetown University Medical Center. Cells were routinely maintained in improved minimal essential medium (IMEM, Biofluids, Rockville, Md.) with 10% fetal bovine serum. Cultures were maintained in a humidified incubator at 37° C. and 5% CO2.
The effect of Grb2 inhibitors on protein synthesis was determined by two growth assays. The first assay, inhibition of cell proliferation assays were carried out on plastics to directly measure the cell killing activity. Cells that have amplified erbB-2 signaling such as the MDA-453 cells are inhibited by treatment with the tested inhibitors.

[2] = test system: MDA-MB-453 human breast cancer cells; test: Cell growth inhibition assay (XTT); conditions: MDA-MB-453, FIG. 17b
From the text: as §1, §2
(§3) The second assay, a soluble tetrazolium/formazan (XTT) assay for cell growth in a 96-well plate was performed. Cells (2,000-4,000 cells/well) were grown in IMEM medium with 10% FBS and were treated with increasing concentrations of Grb2 inhibitors(1-50 uM). After 6-8 days culture, XTT (1.0 mg/ml plus PMS at 1.53 mg/ml) was added to each well and incubated for four hours at 37° C. Absorbance at 450 nm was measured with the Dynatech Model MR700.

[3] = test system: MDA-MB-253 breast cancer cells; test: Cell growth inhibition assay; conditions: MDA-MB-253, FIG. 17c
Method: as §1, §3

Question: What does the source list for `NC(=O)C[C@H](NC(=O)C1(NC(=O)[C@H](Cc2ccc(C(C(=O)O)C(=O)O)cc2)NC(=O)C(=O)O)CCCCC1)C(=O)NCCCc1cccc2ccccc12`?
Answer: IC50 (Grb2 SH2 domain): 155 nM; inhibition of MAP kinase (MAP kinase): over 60%; Grb2 binding inhibition (Grb2): effective in inhibiting Grb2 binding; proliferation inhibition [1]: proliferation inhibition; growth inhibition [2]: growth inhibition; growth inhibition [3]: lack of growth inhibition

Question: `CC(=O)N[C@@H](Cc1ccc(C(C(=O)O)C(=O)O)cc1)C(=O)NC1(C(=O)N[C@@H](CC(N)=O)C(=O)NCCCc2cccc3ccccc23)CCCCC1` was tested. Which IC50 (Grb2 SH2 domain) did it give?
Answer: Its IC50 is 500 nM.

Question: And the Grb2 binding inhibition (Grb2)?
Answer: The Grb2 binding inhibition was “effective in inhibiting Grb2 binding”.

Question: What about the proliferation inhibition [1] of the same compound?
Answer: Its proliferation inhibition is “proliferation inhibition”.

Question: What about the growth inhibition [2] of the same compound?
Answer: The growth inhibition was “growth inhibition”.

Question: What about the growth inhibition [3] of the same compound?
Answer: Its growth inhibition is “lack of growth inhibition”.
